Literature values, collected in patent US20130330412A1, “SMART POLYMERIC NANOPARTICLES WHICH OVERCOME MULTIDRUG RESISTANCE TO CANCER THERAPEUTICS AND TREATMENT-RELATED SYSTEMIC TOXICITY” (THE JOHNS HOPKINS UNIVERSITY, priority 2010, published 2013).

Conditions: combination therapy with doxorubicin, breast cancer patients; cited from earlier work

## Trastuzumab: monoclonal antibody against human epidermal growth factor-2; HER2
  patients developing some form of cardiotoxicity: approximately 27%
